The supplement of paper PMC9103864

Key:
[1] = system: BMSC (primary human bone marrow mesenchymal stromal cells); experiment: absolute EC50 for viability; higher = less sensitive
[2] = system: BMSC (primary human bone marrow mesenchymal stromal cells); experiment: drug sensitivity score (DSS); higher = more sensitive

NCc1ccc(OCCCc2sc(-c3ccc4c(c3)/C(=N/Nc3nc5ccccc5s3)CCC4)nc2C(=O)O)cc1 [WEHI-539]
absolute EC50 for viability [1]: > 2500 nM
drug sensitivity score [2]: 0
